In ChEMBL document CHEMBL1146149, “The development of 2-benzimidazole substituted pyrimidine based inhibitors of lymphocyte specific kinase (Lck)” (Bioorg Med Chem Lett, 2006) one finds IC50 data, which are given here for one compound.

Amino acid sequences for entries named in this document (tags omitted). A change or cut given only in a name is not applied to a line headed by its entry.
UniProt P08631: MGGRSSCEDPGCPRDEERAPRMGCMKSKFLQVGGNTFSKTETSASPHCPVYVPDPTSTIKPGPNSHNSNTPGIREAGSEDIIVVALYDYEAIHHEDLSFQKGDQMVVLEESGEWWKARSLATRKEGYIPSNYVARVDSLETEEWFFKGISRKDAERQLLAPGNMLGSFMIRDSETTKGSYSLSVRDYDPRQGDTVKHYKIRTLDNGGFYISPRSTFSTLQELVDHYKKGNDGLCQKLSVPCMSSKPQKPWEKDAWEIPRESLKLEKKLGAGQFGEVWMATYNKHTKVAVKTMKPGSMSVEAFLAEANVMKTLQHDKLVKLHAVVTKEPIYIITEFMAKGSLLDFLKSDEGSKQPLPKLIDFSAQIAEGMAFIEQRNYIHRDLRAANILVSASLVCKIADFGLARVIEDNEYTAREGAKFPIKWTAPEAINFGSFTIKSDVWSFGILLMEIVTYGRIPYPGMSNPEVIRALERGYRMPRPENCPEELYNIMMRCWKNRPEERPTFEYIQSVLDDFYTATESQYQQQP

SMILES strings stand for the structures. pIC50: −log10 of the molar value.

In general, pIC50 refers to the IC50 on a negative log10 scale, so that one unit is a factor of ten.

For this test, the target named is Tyrosine-protein kinase HCK (Homo sapiens, UniProt P08631). The test can be described thus: Inhibition of human recombinant Hck by ProFlour assay.

As to `CCN(CC)CCNc1cc(Nc2cc(O)ccc2C)nc(-n2cnc3ccccc32)n1`, the pIC50 was 7.34.
